According to paper PMC7555839 (Frontiers in Microbiology, 2020):

Test system: Escherichia coli mutant [wp2 (pKM101)]
Test: Ames test
Details: Positive control, −S9, 1 µg/well

Q: Which “Mean number of reverse mutated colonies” value does the source give for `CN(N=O)C(=N)N[N+](=O)[O-]` here?
A: 206.67 ± 16.65
